# Results published in PubChem BioAssay AID1326 (NMMLSC, 2008).
# Chains of the proteins cited; added tags and fusions are not shown.
# UniProt P08183, whole entry: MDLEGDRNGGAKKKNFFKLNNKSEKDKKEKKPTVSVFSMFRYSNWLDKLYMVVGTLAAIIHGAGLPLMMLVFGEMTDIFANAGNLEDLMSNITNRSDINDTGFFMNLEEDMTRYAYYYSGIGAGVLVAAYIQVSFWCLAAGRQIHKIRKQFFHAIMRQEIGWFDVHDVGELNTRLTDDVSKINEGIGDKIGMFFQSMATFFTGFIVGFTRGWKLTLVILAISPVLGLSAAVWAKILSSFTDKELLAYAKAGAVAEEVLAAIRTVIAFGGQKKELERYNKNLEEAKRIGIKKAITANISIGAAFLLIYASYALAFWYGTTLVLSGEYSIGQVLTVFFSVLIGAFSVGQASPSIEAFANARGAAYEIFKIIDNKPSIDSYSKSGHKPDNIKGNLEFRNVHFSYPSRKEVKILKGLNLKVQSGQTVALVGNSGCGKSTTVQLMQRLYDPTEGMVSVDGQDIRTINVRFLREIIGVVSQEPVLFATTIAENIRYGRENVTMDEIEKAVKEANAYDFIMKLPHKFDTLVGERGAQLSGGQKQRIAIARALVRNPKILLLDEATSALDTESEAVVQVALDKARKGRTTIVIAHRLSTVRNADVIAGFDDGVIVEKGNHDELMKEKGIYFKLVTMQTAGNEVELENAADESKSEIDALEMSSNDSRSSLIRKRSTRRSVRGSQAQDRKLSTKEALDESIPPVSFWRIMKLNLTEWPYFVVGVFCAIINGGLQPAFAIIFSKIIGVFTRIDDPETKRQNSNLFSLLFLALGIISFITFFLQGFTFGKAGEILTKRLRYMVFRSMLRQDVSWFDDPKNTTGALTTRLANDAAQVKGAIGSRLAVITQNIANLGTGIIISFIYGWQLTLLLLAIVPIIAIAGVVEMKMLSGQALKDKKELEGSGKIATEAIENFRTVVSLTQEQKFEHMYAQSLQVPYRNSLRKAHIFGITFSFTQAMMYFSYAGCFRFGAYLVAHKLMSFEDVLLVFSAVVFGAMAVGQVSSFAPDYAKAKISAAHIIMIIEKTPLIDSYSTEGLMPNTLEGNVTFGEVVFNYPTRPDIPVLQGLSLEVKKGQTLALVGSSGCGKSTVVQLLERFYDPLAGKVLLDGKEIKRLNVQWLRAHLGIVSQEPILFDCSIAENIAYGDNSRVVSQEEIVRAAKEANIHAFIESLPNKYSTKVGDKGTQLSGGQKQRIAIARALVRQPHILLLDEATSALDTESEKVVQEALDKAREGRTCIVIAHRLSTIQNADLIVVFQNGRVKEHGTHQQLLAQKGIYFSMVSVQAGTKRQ
# The list shows a part of the results, in another mix than the full data. Some tests of the compounds listed are not included; inactive here does not mean inactive elsewhere. Activity calls are given as the source filed them. Cut-off read from the data, not from the text of the source: active = inhibition above about 40%; inactive = the rest.
# Molecular target: ATP-dependent translocase ABCB1 (Homo sapiens) (UniProt P08183)
# Experiment: ABCB1 efflux pump inhibitors, primary screen, cell-based, multiplex, flow cytometry, ABCG2 counter-screen (AID 1326);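 note: 0% = vehicle and 100% = reference inhibitor; higher value means more JC-1 retained so stronger ABCB1 efflux block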
# Conditions: CCRF-Adr cells, JC-1 efflux, at 6.6 µM, hits give high values
row,SMILES,inhibition
1,O=C(NCC1(N2CCCCC2)CCCCC1)c1cc([N+](=O)[O-])ccc1Cl,inactive: 1.58%
2,CC(C)N1C(=O)CC2(CCN(CCOC(=O)C(O)(c3ccccc3)c3ccccc3)CC2)C1=O,inactive: 0.23%
3,CN(C)C1CCCC1OC(=O)C(O)(c1ccccc1)c1ccccc1 (centres undefined),inactive: 1.16%
4,Cc1ccccc1C(=O)NCC1(N2CCCCC2)CCCCC1,inactive: 0.16%
5,CCN1CCCC(OC(=O)C2(O)c3ccccc3C=Cc3ccccc32)C1 (centres undefined),inactive: 0.18%
6,C=CCN1CCN(CCOC(=O)C(O)(c2ccccc2)c2ccccc2)CC1,inactive: 0.38%
7,COc1cccc(C(=O)NCC2(N3CCCCC3)CCCCC2)c1,inactive: -0.03%
8,O=C(OC1CN2CCC1CC2)C(CO)(c1ccccc1)c1ccccc1 (centres undefined),inactive: 0.48%
9,CN(C)c1cccc(C(=O)NCC2(N(C)C)CCCCC2)c1,inactive: 0.75%
